{
  "source": "patent US9149445B2",
  "about": "“Inhibition of glycerol-3-phosphate acyltransferase (GPAT) and associated enzymes for treatment of viral infections” (THE TRUSTEES OF PRINCETON UNIVERSITY, priority 2009, dated 2015)",
  "origin": "cited, not measured here",
  "biological_target": "mTOR (Homo sapiens, UniProt P42345)",
  "conditions": "selective mTOR inhibitors; cited from earlier work",
  "data": [
    {"smiles": "O=C(Nc1ccc(-c2nc(N3CC4CCC(C3)O4)c3sccc3n2)cc1)NC1CC1", "values": [
      {"measurement": "IC50", "result": 0.7, "unit": "nM"}
    ]}
  ]
}
